Activity calls are given as the source filed them. The rule behind the calls is not given here.
Experiments:
[1] = target: Retinoic acid receptor alpha (Homo sapiens) (UniProt P10276); experiment: Antagonist activity at human RARalpha expressed in human HeLa cells assessed as inhibition of ATRA-induced RARE-chloramphenicol acetyltransferase reporter gene expression after 24 hrs by transactivation competition assay; assay type: cell-based
Outline: (§1)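 HeLa cells cotransfected with RAR constructs and a constant beta-galactosidase plasmid as internal control, given 10–7 M ATRA (submaximal) plus increasing concentrations of compound; CAT reporter expression measured after 24 h. RARα, RARβ and RARγ tested. Vehicle control was dilution medium without retinoid; ATRA served as positive control.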

The chains behind the UniProt entries cited, without tags or fusion partners.
UniProt P10276, whole entry: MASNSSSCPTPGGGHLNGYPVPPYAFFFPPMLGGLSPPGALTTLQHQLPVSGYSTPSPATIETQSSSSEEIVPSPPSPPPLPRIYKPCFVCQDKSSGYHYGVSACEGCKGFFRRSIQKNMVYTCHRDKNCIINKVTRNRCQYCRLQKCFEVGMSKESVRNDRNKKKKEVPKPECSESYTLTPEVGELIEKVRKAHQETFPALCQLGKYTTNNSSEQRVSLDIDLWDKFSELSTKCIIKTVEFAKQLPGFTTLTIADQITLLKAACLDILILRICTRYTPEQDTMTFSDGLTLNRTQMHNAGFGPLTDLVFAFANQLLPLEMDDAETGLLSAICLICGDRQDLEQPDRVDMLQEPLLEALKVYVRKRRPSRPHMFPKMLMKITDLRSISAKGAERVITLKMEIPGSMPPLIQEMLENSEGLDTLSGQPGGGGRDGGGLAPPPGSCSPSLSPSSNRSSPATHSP

[2] = target: Retinoic acid receptor alpha (Homo sapiens) (UniProt P10276); experiment: Antagonist activity at human RARalpha expressed in human HeLa cells assessed as inhibition of ATRA-induced RARE transactivation after 24 hrs by chloramphenicol acetyltransferase reporter gene assay; assay type: cell-based; outline: as §1

Activity [1]: Active
Activity [2]: Active
SMILES: CC1(C)CC=C(c2cnc3ccccc3c2)c2cc(C(=O)Nc3ccc(C(=O)O)cc3)ccc21

Reference: ChEMBL document CHEMBL2384973, “Pharmacological activity of retinoic acid receptor alpha-selective antagonists in vitro and in vivo” (ACS Med Chem Lett, 2013)
